# Literature values as cited in PMC4955782 (Archives of biochemistry and biophysics, 2016).
# System: tubulin
# Settings: reported by David et al.; cited from earlier work
compound,measurement,value
COc1cc2c(c(OC)c1OC)-c1ccc(OC)c(=O)cc1[C@@H](NC(C)=O)CC2 [colchicine],inhibition of (−)-rhazinilam aberrant assembly reaction,"but not colchicine, inhibited"
